PMC11124525, “Pharmacokinetic–Pharmacodynamic Correlation Analysis of Rhodiola crenulata in Rats with Myocardial Ischemia” (Pharmaceuticals, 2024)
Like-named read-outs stand apart in the source and are kept apart here.

Experimental: A series concentration mixed reference solution with different concentrations was added to 100 μL plasma, and was treated according to the method under Section 4.6 to obtain the matrix standard curve sample. Samples with concentrations of 400, 100, and 10 ng/mL, respectively, were taken as quality control (QC) samples of high, medium, and low concentrations (HQC, MQC, LQC). The method was validated, including linearity, inter-day/intra-day precision, repeatability, stability, extraction recovery, and matrix effect, according to FDA bioanalytical method validation guidelines.

Structure (SMILES) | Stability RE (%) (rat plasma, −80 °C, 10 days, spiked 50 ng/mL, n = 6) | Stability RE (%) (rat, 50 ng/mL)
O=C(O)c1cc(O)c(O)c(O)c1 [Gallic Acid, gallic acid] | 98.31 | –
OC[C@H]1O[C@@H](OCCc2ccc(O)cc2)[C@H](O)[C@@H](O)[C@@H]1O [Salidroside, salidroside] | – | 101.3
